Source: US7193044B1, “Compounds and methods for regulating apoptosis, and methods of making and screening for compounds that regulate apoptosis” (Immunogen, Inc., priority 2000, dated 2007)

Test system: BAD Ser155 phosphorylation in HeLa cells
Test: BAD phosphorylation in HeLa cells (western blot band-shift / anti-phospho-Ser155 antibody)
Assay type: cell-based, human
Details: transfected HeLa cells treated with the agent

“TSH: thyroid stimulating hormone, GPCR ligand” was tested, and the “induction of band-shift (Ser155 phosphorylation) of HA-BAD S112A/S136A” value was “neither TK (FIG. 6(a), lane 3) nor ACTH (FIG. 6(b), lane 5) alone induces a similar band-shift”.
